The results in this text go back to patent publication US10456359B2, “Synergistic beverage composition” (Harsha Chigurupati, priority 2015, dated 2019).

Assay [1] concerns interleukin-12 (IL-12) from brain homogenate. In words: Hangover study, IL-12 from brain homogenate, alcohol 1 day. In kind it is in vivo, Wistar albino rats. Set-up: concentration or dose not given beside the values. To be noted: 1 Day alcohol.
Assay [2] has as its system acetylcholinesterase activity of brain homogenate. To be noted: Hangover study, 1 Day alcohol; ingredient amounts in mass concentration (%).

`CC1(C(=O)O)CCC2(C)CCC3(C)C(=CC(=O)C4C5(C)CCC(OC6OC(C(=O)O)C(O)C(O)C6OC6OC(C(=O)O)C(O)C(O)C6O)C(C)(C)C5CCC43C)C2C1` (stereo not drawn) [0.3 GA, 18β-GA]: the “Brain IL12 Pro (Protection)” value in assay [1] is listed as 20.65%. In assay [2], the “ACHe Pro (Protection)” value came out at 17.19%.
